Assay results: PMC4980415 (Psychopharmacology, 2016)

Amino acid sequences for entries named in this document (tags omitted). A change or cut given only in a name is not applied to a line headed by its entry. Residues count along the entry.
UniProt Q9NP56: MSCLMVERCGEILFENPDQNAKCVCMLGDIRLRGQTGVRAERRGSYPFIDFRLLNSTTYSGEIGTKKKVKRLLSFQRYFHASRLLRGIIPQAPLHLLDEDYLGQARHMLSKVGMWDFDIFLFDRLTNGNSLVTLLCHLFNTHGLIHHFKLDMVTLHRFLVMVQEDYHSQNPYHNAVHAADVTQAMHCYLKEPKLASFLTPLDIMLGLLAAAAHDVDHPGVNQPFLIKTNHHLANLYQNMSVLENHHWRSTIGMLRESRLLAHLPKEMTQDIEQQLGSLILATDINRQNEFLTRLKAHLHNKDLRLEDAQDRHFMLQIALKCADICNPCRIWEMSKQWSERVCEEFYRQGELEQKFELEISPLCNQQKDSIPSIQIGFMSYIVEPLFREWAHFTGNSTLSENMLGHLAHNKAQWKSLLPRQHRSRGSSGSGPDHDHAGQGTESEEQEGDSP
UniProt O76083: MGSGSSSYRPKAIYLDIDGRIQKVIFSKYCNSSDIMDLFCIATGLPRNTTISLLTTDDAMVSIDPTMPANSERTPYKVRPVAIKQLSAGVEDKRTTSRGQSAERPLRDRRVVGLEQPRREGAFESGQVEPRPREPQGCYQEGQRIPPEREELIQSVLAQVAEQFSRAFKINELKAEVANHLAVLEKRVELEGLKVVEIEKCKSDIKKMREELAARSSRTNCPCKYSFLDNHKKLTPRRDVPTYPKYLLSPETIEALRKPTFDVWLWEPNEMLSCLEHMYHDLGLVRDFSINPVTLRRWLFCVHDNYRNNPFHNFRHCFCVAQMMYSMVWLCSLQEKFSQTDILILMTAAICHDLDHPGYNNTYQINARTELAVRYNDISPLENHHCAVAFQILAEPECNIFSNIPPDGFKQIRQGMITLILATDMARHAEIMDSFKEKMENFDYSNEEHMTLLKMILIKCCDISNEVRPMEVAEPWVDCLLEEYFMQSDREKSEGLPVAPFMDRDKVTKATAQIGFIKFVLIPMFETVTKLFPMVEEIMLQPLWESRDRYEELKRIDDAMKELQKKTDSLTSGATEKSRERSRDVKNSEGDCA
UniProt Q9Y233, 1-779 isoform Q9Y233-1: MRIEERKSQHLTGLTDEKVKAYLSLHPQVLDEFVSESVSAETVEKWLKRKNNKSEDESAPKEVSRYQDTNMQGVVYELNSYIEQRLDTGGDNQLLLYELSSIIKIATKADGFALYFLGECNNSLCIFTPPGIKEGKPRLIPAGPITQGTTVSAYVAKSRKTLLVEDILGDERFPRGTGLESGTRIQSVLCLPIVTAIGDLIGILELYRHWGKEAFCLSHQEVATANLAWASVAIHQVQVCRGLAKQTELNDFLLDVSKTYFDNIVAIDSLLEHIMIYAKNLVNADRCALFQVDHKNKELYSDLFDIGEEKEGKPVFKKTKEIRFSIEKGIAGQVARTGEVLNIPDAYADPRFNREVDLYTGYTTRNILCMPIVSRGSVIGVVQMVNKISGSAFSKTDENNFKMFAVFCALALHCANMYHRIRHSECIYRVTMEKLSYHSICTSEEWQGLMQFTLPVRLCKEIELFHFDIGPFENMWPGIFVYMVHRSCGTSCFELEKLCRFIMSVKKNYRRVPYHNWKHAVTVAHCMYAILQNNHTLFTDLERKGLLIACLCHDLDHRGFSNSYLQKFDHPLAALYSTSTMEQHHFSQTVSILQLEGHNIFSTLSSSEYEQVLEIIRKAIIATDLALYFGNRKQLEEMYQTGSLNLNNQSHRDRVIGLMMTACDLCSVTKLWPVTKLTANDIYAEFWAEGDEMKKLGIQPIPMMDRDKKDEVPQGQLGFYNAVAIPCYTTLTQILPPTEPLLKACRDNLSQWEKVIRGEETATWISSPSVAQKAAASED
UniProt Q13370: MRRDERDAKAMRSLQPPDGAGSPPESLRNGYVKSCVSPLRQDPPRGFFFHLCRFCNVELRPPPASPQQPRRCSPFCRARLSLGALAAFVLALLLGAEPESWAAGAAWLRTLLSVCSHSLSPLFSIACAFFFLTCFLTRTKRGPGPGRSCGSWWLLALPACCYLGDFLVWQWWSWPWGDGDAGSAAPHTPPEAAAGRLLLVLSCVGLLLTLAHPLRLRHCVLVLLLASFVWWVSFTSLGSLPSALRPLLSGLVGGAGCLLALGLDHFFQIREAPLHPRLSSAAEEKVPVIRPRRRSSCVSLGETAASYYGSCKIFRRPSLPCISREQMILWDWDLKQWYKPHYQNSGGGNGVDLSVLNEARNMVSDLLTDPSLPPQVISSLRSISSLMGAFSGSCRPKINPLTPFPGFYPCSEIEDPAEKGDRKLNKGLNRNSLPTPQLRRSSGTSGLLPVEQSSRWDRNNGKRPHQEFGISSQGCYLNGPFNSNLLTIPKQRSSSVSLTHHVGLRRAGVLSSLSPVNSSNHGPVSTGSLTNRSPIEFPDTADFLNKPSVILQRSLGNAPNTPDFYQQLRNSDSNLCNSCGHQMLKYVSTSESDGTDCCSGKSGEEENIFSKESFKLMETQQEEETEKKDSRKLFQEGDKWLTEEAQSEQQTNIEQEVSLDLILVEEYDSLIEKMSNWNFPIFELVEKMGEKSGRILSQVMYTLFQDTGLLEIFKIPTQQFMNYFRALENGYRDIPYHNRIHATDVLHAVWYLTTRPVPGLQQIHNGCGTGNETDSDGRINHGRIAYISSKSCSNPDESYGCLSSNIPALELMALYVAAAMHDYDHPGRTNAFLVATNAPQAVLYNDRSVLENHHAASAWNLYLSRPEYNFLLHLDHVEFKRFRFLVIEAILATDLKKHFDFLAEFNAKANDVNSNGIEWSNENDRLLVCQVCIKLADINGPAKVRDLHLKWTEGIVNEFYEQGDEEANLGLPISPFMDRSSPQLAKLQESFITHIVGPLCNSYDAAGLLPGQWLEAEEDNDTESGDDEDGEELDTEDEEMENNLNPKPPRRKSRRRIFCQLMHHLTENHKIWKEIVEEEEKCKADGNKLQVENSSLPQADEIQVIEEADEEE
UniProt O00408, whole entry: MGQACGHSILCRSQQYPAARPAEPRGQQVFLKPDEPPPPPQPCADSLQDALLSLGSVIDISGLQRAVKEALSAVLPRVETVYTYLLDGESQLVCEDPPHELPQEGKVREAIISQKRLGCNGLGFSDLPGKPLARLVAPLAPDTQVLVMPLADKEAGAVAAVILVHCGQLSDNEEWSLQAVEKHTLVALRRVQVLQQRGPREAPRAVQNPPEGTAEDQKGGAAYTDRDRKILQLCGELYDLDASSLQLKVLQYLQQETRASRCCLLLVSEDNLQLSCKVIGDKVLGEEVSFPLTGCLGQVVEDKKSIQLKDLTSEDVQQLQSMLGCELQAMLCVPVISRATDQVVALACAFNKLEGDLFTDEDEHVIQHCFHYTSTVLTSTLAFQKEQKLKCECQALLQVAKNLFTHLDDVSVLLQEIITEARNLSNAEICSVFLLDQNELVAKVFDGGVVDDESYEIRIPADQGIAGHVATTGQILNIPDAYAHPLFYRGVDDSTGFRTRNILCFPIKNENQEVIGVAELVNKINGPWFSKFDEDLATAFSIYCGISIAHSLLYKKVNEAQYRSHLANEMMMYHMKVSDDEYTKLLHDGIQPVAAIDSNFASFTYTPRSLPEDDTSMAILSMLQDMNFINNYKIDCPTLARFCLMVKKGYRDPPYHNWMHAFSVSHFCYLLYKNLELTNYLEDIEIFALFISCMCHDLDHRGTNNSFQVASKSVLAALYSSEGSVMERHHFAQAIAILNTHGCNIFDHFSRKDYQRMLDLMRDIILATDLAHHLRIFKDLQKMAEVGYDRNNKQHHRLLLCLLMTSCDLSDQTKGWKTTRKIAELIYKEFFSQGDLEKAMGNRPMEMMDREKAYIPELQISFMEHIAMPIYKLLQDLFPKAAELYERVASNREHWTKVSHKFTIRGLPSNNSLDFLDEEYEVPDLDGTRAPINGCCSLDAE

Key:
[1] = target: hPDE7B (Homo sapiens, UniProt Q9NP56); conditions: Fl-cAMP substrate
[2] = target: hPDE9A (Homo sapiens, UniProt O76083); test: biochemical
[3] = target: hPDE10A (Homo sapiens, UniProt Q9Y233); conditions: Fl-cAMP substrate
[4] = target: hPDE3B (Homo sapiens, UniProt Q13370); conditions: Fl-cAMP substrate
[5] = target: hPDE2A (Homo sapiens, UniProt O00408); test: biochemical
[6] = test system: conditioned avoidance responding in male Wistar rats; test: Conditioned avoidance response (CAR); conditions: CAR paradigm

| Structure (SMILES) | Ki [1] [nM] | Ki [2] [nM] | Ki [3] [nM] | Ki [4] [nM] | Ki [5] [nM] | effect on number of escape failures [6] |
| --- | --- | --- | --- | --- | --- | --- |
| CN1C(=O)c2c(nn(Cc3ccc(-c4cccc(F)n4)cc3)c2Nc2ccccc2)N2C1=N[C@@H]1CCC[C@@H]12 [ITI-214, (6aR,9aS)-2-(4-(6-fluoropyridin-2-yl)benzyl)-5-methyl-3-(phenylamino)-5,6a,7,8,9,9a-hexahydrocyclopenta-[4,5]imidazo[1,2-a]pyrazolo[4,3-e]pyrimidin-4-(2H)-one phosphate salt] | 360 | > 10000 | 1800 | 3100 | > 10000 |  |
| Cc1nc2n(c(=O)c1CCN1CCC(c3noc4cc(F)ccc34)CC1)CCCC2 [Risperidone, reference compound] |  |  |  |  |  | Neither risperidone nor ITI-214 had significant effects |

Structures can show the parent of a compound that is named as a salt.
